Source: US6531481B2 (priority 1998, dated 2003)

Chains of the proteins cited; added tags and fusions are not shown. Lines headed by an entry give the natural chain unless they say otherwise; changes in a name come on top.
UniProt P41144: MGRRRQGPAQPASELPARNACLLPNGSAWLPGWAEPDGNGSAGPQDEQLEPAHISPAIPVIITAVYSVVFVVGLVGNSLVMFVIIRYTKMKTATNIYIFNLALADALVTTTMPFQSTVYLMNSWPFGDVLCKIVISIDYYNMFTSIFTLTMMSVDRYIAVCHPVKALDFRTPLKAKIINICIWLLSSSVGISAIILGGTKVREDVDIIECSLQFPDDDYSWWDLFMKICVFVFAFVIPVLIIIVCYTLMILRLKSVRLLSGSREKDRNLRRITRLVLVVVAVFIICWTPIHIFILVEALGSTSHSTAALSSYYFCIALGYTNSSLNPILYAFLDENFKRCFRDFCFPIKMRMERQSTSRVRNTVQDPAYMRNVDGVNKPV

Target: kappa opioid receptor (Cavia porcellus, UniProt P41144)
Assay: Opioid binding assay, kappa-1 binding sites labeled with [3H]U69,593
Conditions: read-out: Kd of [3H]U69,593 binding; under the assay conditions

Substance: [^3H](5α,7α,8β)-(−)-N-methyl-N-[7-(1-pyrrolidinyl)-1-oxaspiro[4,5]dec-8-yl]benzeneacetamide
- Kd: 3.75 nM
